Usually Papp A→B stands for the apparent permeability from the apical to the basolateral side of a cell layer. Broadly, the Papp B→A is how fast a substance crosses the layer from the basolateral side. What is called efflux ratio is a quotient of directional permeabilities that is used to spot active efflux.

The data set in a line: Caco-2 permeability assay. As to conditions: human, Caco-2, pH 7.4.

For `CC(C)CN(C[C@@H](O)[C@H](Cc1ccccc1)NC(=O)O[C@H]1CCOC1)S(=O)(=O)c1ccc(N)cc1` [Amprenavir], the apparent permeability from apical to basolateral (Papp A→B) at 90 min, 10 μM came to 15.5 ×10⁻⁶ cm/s; the Papp B→A at 90 min, 10 μM amounted to 49.6 ×10⁻⁶ cm/s; the efflux ratio at 90 min, 10 μM came out at 3.2.

The values are drawn from patent US12329799B2, “Peptidyl inhibitors of calcineurin-NFAT interaction” (Ohio State Innovation Foundation, priority 2018, dated 2025).
